Each structure is given as a SMILES string. The list shows a part of the results, in another mix than the full data. Calls of active or inactive are those of the source.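 The calls were made as follows: active = inhibition above the mean of all tested compounds plus 3 SD, cutoff set per screening run (cut at about 7.5% in these data); inactive = the rest.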

The experiment has as its system VIM-2 metallo-beta-lactamase (Pseudomonas aeruginosa). Nature of the experiment: inhibition of VIM-2 nitrocefin hydrolysis – biochemical, epi-absorbance readout, Pseudomonas aeruginosa enzyme, primary screen (AID 1527).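 Also: red hydrolysis product quenches plate fluorescence so inhibitors raise well fluorescence; 0% = enzyme with DMSO and 100% = DMSO without enzyme.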 Particulars: purified VIM-2, nitrocefin hydrolysis, epi-absorbance fluorescence; at 5.6 µM; hits give high values.
With `CC(=O)Nc1ccc([As](=O)(O)O)cc1`, the inhibition is inactive: -1.69%. With `O=C(O)c1ccccc1[As](=O)(O)O` the figure was inactive: -1.79%; with `Cc1ccccc1OP(=O)(Nc1ccccn1)Oc1ccccc1C`, inactive: -2.16%; with `O=c1c2cc([N+](=O)[O-])ccc2[nH]c2c([N+](=O)[O-])cc([N+](=O)[O-])cc12`, inactive: -5.92%.

For `CN(C)C(=O)Oc1noc2ccccc12`, the inhibition is inactive: -1.62%. With `O=C(OC1CN2CCC1CC2)c1ccccc1` (centres undefined), the inhibition is inactive: -2.05%.

Take `CCC(=O)N1C2C3N(C(=O)CC)C1C1N(C(=O)CC)C(C(N1C(=O)CC)N3C(=O)CC)N2C(=O)CC`: the inhibition was inactive: -3.1%. With `COC(=O)c1cc2c(s1)N=C(c1ccccc1)N(C)P2(=O)N1CCOCC1` (centres undefined) the figure was inactive: 3.76%; with `Cc1ccc(OP(=O)(Nc2ccccn2)Oc2ccc(C)cc2)cc1`, inactive: -1.38%; with `CC(=O)NC(SC(=S)N(CC(C)C)CC(C)C)C(Cl)(Cl)Cl` (centres undefined), inactive: -1.96%. With `c1ccc(-c2nn[nH]n2)c(-c2nn[nH]n2)c1` the figure was inactive: -3.19%. With `CCOC(=O)NC(Sc1ccccc1)C(Cl)(Cl)Cl` (centres undefined) the figure was inactive: -0.41%; with `Cc1ccc(NP(=O)(Oc2cccc(C)c2)Oc2cccc(C)c2)nc1`, inactive: -0.07%; with `CCNC(=S)/N=C(\N)N[N+](=O)[O-]`, inactive: -1.06%. For the molecule `O=C(NC1CCS(=O)(=O)C1)NP(=S)(Oc1ccccc1)Oc1ccccc1` (centres undefined), the inhibition is inactive: -1.85%. With `CC(=O)Nc1ccc([As](=O)(O)O)c(O)c1` the figure was inactive: -2.29%; with `CC(=O)Nc1ccc(Oc2c([N+](=O)[O-])cc([N+](=O)[O-])cc2[N+](=O)[O-])cc1`, inactive: -0.53%. With `CC(=O)c1ccc(N2CC2c2ccncc2)cc1` (centres undefined), the inhibition is inactive: -1.85%. With `CC(C)(C)C(=O)NC(Sc1ccccc1)C(Cl)(Cl)Cl` (centres undefined) the figure was inactive: -1.62%.

`O=P1(Nc2nc3ccc(Cl)cc3s2)COc2ccccc2O1` (centres undefined): the inhibition is inactive: -2.19%. With `CCOc1ccc(C2=NCC(CBr)S2)cc1` (centres undefined) the figure was inactive: -3.07%; with `c1nnnn1CCn1cnnn1`, inactive: -4.58%. With `CC(C)C(=O)NC(Sc1ccccc1)C(Cl)(Cl)Cl` (centres undefined) the figure was inactive: -1.63%.

For the molecule `O=P(Nc1nccs1)(c1ccccc1)c1ccccc1`, the inhibition was inactive: -3.31%. Turning to `O=C(OC1CN2CCC1CC2)c1cccc(Cl)c1` (centres undefined), the inhibition was inactive: 0.46%.

As to `C(Cc1nn[nH]n1)Cc1nn[nH]n1`, the inhibition is inactive: -2.84%.

Consider `Nc1ccc([As](=O)(O)c2ccc([N+](=O)[O-])cc2)cc1`, for which the inhibition is inactive: -0.43%. With `O=[As](O)(c1ccccc1)c1ccc(O)cc1` the figure was inactive: 0.17%; with `O=[N+]([O-])c1ccc(O)c(/C=N/Nc2ccc([N+](=O)[O-])cc2[N+](=O)[O-])c1`, inactive: -2.71%; with `O=[N+]([O-])c1ncn(CCn2cnc([N+](=O)[O-])n2)n1`, inactive: -4.21%.

Turning to `CC(=O)NC(SC(=S)N(C)C)C(Cl)(Cl)Cl` (centres undefined), the inhibition is inactive: -2.67%. With `O=P(Nc1nc2ccccc2s1)(c1ccccc1)c1ccccc1`, the inhibition is inactive: -1.9%. With `O=P(Nc1ccccn1)(c1ccc(Br)cc1)c1ccc(Br)cc1` the figure was inactive: -2.16%; with `CN(C)C1(CNC(=O)c2ccc(Cl)c(S(N)(=O)=O)c2)CCCCC1`, inactive: -3.26%.

These data come from PubChem BioAssay AID1527 (The Scripps Research Institute Molecular Screening Center, 2009).
